Test system: histamine-induced PPE
Assay: Histamine-induced plasma protein extravasation in the lung
Format: in vivo, guinea-pigs
Excerpt: The method of evaluating the effects of β2-adrenoreceptor agonists on vascular permeability and plasma protein extravasation was adapted from the technique of Erjefalt et al Acta.Physiol.Scand ., 128, 653-654 (1966). Briefly, guinea-pigs (male Dunkin Hartley, 300-400g) were given an intracardiac injection of iodinated human serum albumin (0.5µCi) in heparinised saline (10U.ml^-1).

OCc1cc(C(O)CNCCCCCCOCCCCc2ccccc2)ccc1O (stereo not drawn) [salmeterol, 4-hydroxy-α^1-[[[6-(4-phenylbutoxy)hexyl]amino]methyl]-1,3-benzenedimethanol]
concentration required to reduce histamine-induced PPE by 50% (ED50) (aerosol, nebuliser concentration): 15 µg/mL
time after administration at which inhibition of histamine induced PPE is still evident (inhaled): 6 to 8 h
